Tested on: QTcF interval of healthy volunteers
Assay: Time-matched analysis of placebo-adjusted change from baseline QTcF
Format: in vivo, human
Conditions: moxifloxacin 400 mg

`COc1c(N2C[C@@H]3CCCN[C@@H]3C2)c(F)cc2c(=O)c(C(=O)O)cn(C3CC3)c12` [Moxifloxacin] was tested, and the “Placebo-adjusted change from baseline QTcF, estimate (90%CI)” value (“Placebo-adjusted change … (90%CI)” for short) (N = 17, 5 min postdose) was 2.5 (–1.9 to 7.0) ms, the “Placebo-adjusted change … (90%CI)” value (N = 17, 10 min postdose) was 1.6 (–1.9 to 5.0) ms and the “Placebo-adjusted change … (90%CI)” value (N = 17, 20 min postdose) was 1.0 (–3.5 to 5.5) ms. The “Placebo-adjusted change … (90%CI)” value (N = 17, 0.5 h postdose) was 6.7 (2.6–10.8) ms, the “Placebo-adjusted change … (90%CI)” value (N = 17, 0.75 h postdose) was 13.0 (8.8–17.2) ms and the “Placebo-adjusted change … (90%CI)” value (N = 17, 1 h postdose) was 11.9 (8.3–15.6) ms. For the same compound, the “Placebo-adjusted change … (90%CI)” value (N = 17, 1.5 h postdose) was 12.2 (7.5–16.9) ms, the “Placebo-adjusted change … (90%CI)” value (N = 17, 2 h postdose) was 14.5 (9.7–19.4) ms and the “Placebo-adjusted change … (90%CI)” value (N = 17, 3 h postdose) was 13.9 (8.9–19.0) ms. The “Placebo-adjusted change … (90%CI)” value (N = 17, 4 h postdose) was 15.0 (10.3–19.7) ms, the “Placebo-adjusted change … (90%CI)” value (N = 17, 6 h postdose) was 9.1 (5.0–13.2) ms and the “Placebo-adjusted change … (90%CI)” value (N = 17, 8 h postdose) was 10.1 (6.6–13.7) ms. For the same compound, the “Placebo-adjusted change … (90%CI)” value (N = 17, 12 h postdose) was 10.0 (5.4–14.7) ms, the “Placebo-adjusted change … (90%CI)” value (N = 17, 16 h postdose) was 8.6 (4.6–12.6) ms and the “Placebo-adjusted change … (90%CI)” value (N = 17, 24 h postdose) was 7.1 (3.6–10.6) ms.

— PMC7586935 (Journal of Clinical Pharmacology, 2020)
